Measurements published in US20260258050A1, “IMMUNOMODULATOR” (HITGEN INC., priority 2023, published 2026).
pIC50: −log10 of the molar value.

The chains behind the UniProt entries cited, without tags or fusion partners. Residues count along the entry.
UniProt Q16552, 20-155 limits assumed: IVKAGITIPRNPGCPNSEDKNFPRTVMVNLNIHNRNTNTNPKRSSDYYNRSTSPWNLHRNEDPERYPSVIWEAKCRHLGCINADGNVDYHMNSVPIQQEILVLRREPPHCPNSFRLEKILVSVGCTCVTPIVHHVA
UniProt Q16552, 24-155 limits assumed: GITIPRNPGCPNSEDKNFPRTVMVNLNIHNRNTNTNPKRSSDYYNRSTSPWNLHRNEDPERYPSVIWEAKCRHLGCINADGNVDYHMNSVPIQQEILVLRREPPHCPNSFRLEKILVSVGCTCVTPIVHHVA
UniProt Q96PD4, 31-163 limits assumed: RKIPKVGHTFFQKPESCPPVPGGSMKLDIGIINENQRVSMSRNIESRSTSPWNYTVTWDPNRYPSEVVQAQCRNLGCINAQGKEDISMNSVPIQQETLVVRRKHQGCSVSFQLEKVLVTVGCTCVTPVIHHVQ

Experiments:
Human IL-17A [1] = target: T1, Human IL-17A (Homo sapiens, UniProt Q16552); assay: IL-17A enzyme-linked immunosorbent assay (competitive ELISA, IL-17A/IL-17Ra receptor-ligand binding); details: read-out: IC50, inhibitory activity of compounds on human IL-17A, human IL-17A coated plate, human IL-17Ra
Human IL-17AF = Human IL-17AF (Homo sapiens, UniProt Q16552+Q96PD4); assay: IL-17AF ELISA (competitive ELISA, IL-17AF/IL-17Ra receptor-ligand binding); details: read-out: IC50, inhibitory activity of compounds on human IL-17AF, human IL-17AF coated plate, human IL-17Ra
Human IL-17A [2] = target: T1, Human IL-17A; assay: Inhibition of human IL-17A protein-induced GROα/CXCL1 production in HT-29 cells; details: read-out: Inhibitory IC50 of compounds on HT-29 cell GROα/CXCL1, 30 ng/mL human IL-17A protein, 48 h, GROα in supernatant by ELISA kit

| SMILES | pIC50 (Human IL-17A [1]) | pIC50 (Human IL-17AF) | pIC50 (Human IL-17A [2]) |
| --- | --- | --- | --- |
| Cc1[nH]nc2c1-c1cc(F)c(NC(=O)[C@@H](NC(=O)c3ccnn3C(C)C(F)F)C(C3CC3)C3CC3)cc1COCC2 (single isomer, unassigned) | 6.82 to 7.30 | 6.30 to 7.00 | – |
| Cc1[nH]nc2c1-c1cc(Cl)c(NC(=O)[C@@H](NC(=O)c3ccnn3C(C)C)C(C3CC3)C3CC3)cc1COCC2 | 6.82 to 7.30 | – | – |
| Cc1[nH]nc2c1-c1cc(F)c(NC(=O)[C@@H](NC(=O)c3ccnn3C(C)C)C(C3CC3)C3CC3)cc1COC(C)C2 (single isomer, unassigned) | > 7.30 | 6.30 to 7.00 | 6.30 to 7.00 |
| CCn1nccc1C(=O)NC(C(=O)Nc1ccc2c(c1)COCCc1n[nH]c(C)c1-2)C1CCC(F)(F)CC1 (single isomer, unassigned) | 6.82 to 7.30 | – | – |
| Cc1[nH]nc2c1-c1ccc(NC(=O)[C@@H](NC(=O)c3ccnn3C(C)C)C(C3CC3)C3CC3)cc1COCC2 | > 7.30 | > 7.00 | > 7.00 |
| Cc1[nH]nc2c1-c1ccc(NC(=O)[C@@H](NC(=O)c3ccnn3C(C)C)C(C3CC3)C3CC3)cc1CCOC2 | 6.82 to 7.30 | – | – |
| Cc1[nH]nc2c1-c1cnc(NC(=O)[C@@H](NC(=O)OC3CCC3)C(C3CC3)C3CC3)cc1CN(C1CC1)CC2 | > 7.30 | 6.30 to 7.00 | 6.30 to 7.00 |

Continued, values first:

| pIC50 (Human IL-17A [1]) | pIC50 (Human IL-17AF) | pIC50 (Human IL-17A [2]) | SMILES |
| --- | --- | --- | --- |
| > 7.30 | – | – | Cc1[nH]nc2c1-c1cc(F)c(NC(=O)C(COC(C)(C)C(F)(F)F)NC(=O)c3ccnn3C(C)C)cc1COCC2 (stereo not drawn) |
| > 7.30 | > 7.00 | > 7.00 | Cc1[nH]nc2c1-c1cnc(NC(=O)[C@@H](NC(=O)c3ccnn3C(C)C)C(C3CC3)C3CC3)cc1COCC2 |
| > 7.30 | 6.30 to 7.00 | – | Cc1[nH]nc2c1-c1cc(F)c(NC(=O)[C@@H](NC(=O)c3ccnn3C(C)C)C(C3CC3)C3CC3)cc1COC(C)(C)C2 |
| > 7.30 | – | – | Cc1[nH]nc2c1-c1cc(F)c(NC(=O)[C@@H](NC(=O)OC3CC3)C(C3CC3)C3CC3)cc1COCC2 |
